In ChEMBL document CHEMBL4007424, “Design and Synthesis of Enantiomerically Pure Decahydroquinoxalines as Potent and Selective κ-Opioid Receptor Agonists with Anti-Inflammatory Activity in Vivo” (J Med Chem, 2017):

Test: Displacement of [3H]DPDPE from delta-type opioid receptor in guinea pig brain membranes after 120 mins by solid scintillation counting

Structure (SMILES): O=C(Cc1ccc(Cl)c(Cl)c1)N1CCN[C@H]2CCC[C@H](N3CCCC3)[C@H]21
- Ki: 915 nM
